Shown are actives, neighbours in structure and some others; about 1.3% of the full set was active somewhere.
MLL AF4-AF9 inh: inhibitors of AF4 peptide binding to AF9, primary screen, biochemical, AlphaScreen, biotin-AF4 peptide, FLAG-AF9, single point. Protein AF-9 (Homo sapiens), P42568. inhibition, % at 10 µM. 0.47% of 350,000 active. AID 651704, 2012;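 active = every replicate reaching a set inhibition limit, whatever the replicate mean, cut at about 25% in these data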;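 note: 0% = plate neutral control median and 100% = total signal loss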
ARNT TACC3 PPI: disruptors of ARNT/TACC3 protein interaction, primary screen, biochemical, AlphaScreen, single concentration; Transforming acidic coiled-coil-containing protein 3 (Homo sapiens), Q9Y6A5; AlphaScreen His-ARNT PAS-B/GST-TACC3 binding, luminescence; TACC3 fragment carries E629A point mutation; inhibition, % at 9.99 µM; 0.66% of 390,000 active; AID 623870, 2012;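 active = mean inhibition of replicates at least 50% and at least half of replicates each reaching 50%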;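 note: 0% = complete ARNT plus TACC3 wells and 100% = ARNT alone without TACC3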
E-selectin induc: E-selectin induction in HUVECs, primary screen, imaging, HUVEC, immunofluorescence imaging, single point; normalized: neutral wells 0, TNF-alpha wells 100; activation, % at 7.58 µM; 0.37% of 260,000 active; AID 686992, 2013;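 active = mean E-selectin-positive cell signal at least 10% of the positive control, reached in at least 60% of replicates, without over 20% cell loss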
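System: HUVEC / Compound: single concentration / Signal: immunofluorescence imaging / Read-out: percent E-selectin-positive cells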
Yeast UUG start: modulators of start codon recognition fidelity in yeast; AID 602363; hit rate 0.13% among 350,000; activity score, % at 18.7 µM; S. cerevisiae UUG-firefly luciferase reporter, luminescence/redox ratio;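 active = replicate mean at a twofold rise or more, about +100% in these data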;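 note: firefly luciferase made from a UUG start codon reports start codon fidelity; reporter light over untreated wells divided by growth signal over untreated wells; some hits fall short of that in this replicate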
ERAP1 HTS inh: human ERAP1 aminopeptidase inhibitors, primary screen, biochemical, single point, plate reader; Endoplasmic reticulum aminopeptidase 1 (Homo sapiens), Q9NZ08; recombinant ERAP1, Leu-AMC fluorescence, 60 min; inhibition, % at 10.7 µM; 0.15% of 340,000 active; AID 652197, 2013;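 active = mean replicate inhibition of at least 30%, or all replicates individually reaching that 30% level; inactive = mean below 30% and not every replicate reaching it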;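 note: 0% = neutral control wells and 100% = L-leucinethiol positive control wells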
S100A4 MyoIIA: inhibitors of S100A4-myosin IIA peptide binding, primary screen, biochemical, fluorescence polarization, TAMRA-MyoIIA peptide. inhibition, % at 10.7 µM. Protein S100-A4 (Homo sapiens), P26447. 0.14% of 360,000 active;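 active = mean inhibition of at least 70% across replicates, with every replicate also reaching that level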
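Test system: S100A4 monomer protein. Medium: HEPES buffer with Ca2+, pH 7.2. Reagent: fluorescent myosin IIA peptide, 5 nM. Compound dosing: single-point compound testing. Timing: 5 min between mix addition and reading. Benchmarks: DMSO neutral and TFP positive wells.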
AlphaScreen ctr: AlphaScreen signal interference compounds, dose response, artefact control for ARNT-TACC3 interaction inhibitor project, biochemical, luminescence, cherry-pick; shares compounds with ARNT TACC3 PPI; His-ARNT PASB-GST AlphaScreen artifact counter-screen; AC50, µM (top dose mostly 68 µM), inactives show at the top dose activity change, negative = signal decrease; 50% of 1,200 active; AID 651705, 2012;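 active = every separate test run was called active for a drop in luminescence, with AC50 within twice the top valid dose, actives reach about 71 µM in these data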
* = called active by the depositor; [ ] = another dose, or the depositor's remark.

The first two compounds (preview)
Results for Oc1c(Cl)cc(CN2CCOCC2)c2cccnc12 ?
MLL AF4-AF9 inh: 35*; ARNT TACC3 PPI: 71*; E-selectin induc: -2; Yeast UUG start: -41; ERAP1 HTS inh: 0; S100A4 MyoIIA: -1; AlphaScreen ctr: 7.3µM*

What do the screens show for `Oc1c(Cl)cc(Cl)c(Cl)c1CN1CCOCC1`?
MLL AF4-AF9 inh: -2; ARNT TACC3 PPI: -3; E-selectin induc: 0; Yeast UUG start: -17; ERAP1 HTS inh: 0; S100A4 MyoIIA: -5

The list itself, from the first entry:
Results for Oc1c(Cl)cc(CN2CCOCC2)c2cccnc12 ?
MLL AF4-AF9 inh: 35*; ARNT TACC3 PPI: 71*; E-selectin induc: -2; Yeast UUG start: -41; ERAP1 HTS inh: 0; S100A4 MyoIIA: -1; AlphaScreen ctr: 7.3µM*

What do the screens show for `Oc1c(Cl)cc(Cl)c(Cl)c1CN1CCOCC1`?
MLL AF4-AF9 inh: -2; ARNT TACC3 PPI: -3; E-selectin induc: 0; Yeast UUG start: -17; ERAP1 HTS inh: 0; S100A4 MyoIIA: -5

What do the screens show for `Oc1c(CN2CCCCC2)cc(Br)c2cccnc12`?
ARNT TACC3 PPI: 64*; Yeast UUG start: -29; AlphaScreen ctr: 5.6µM*

What do the screens show for `O=C(Oc1c(CN2CCOCC2)cc(Cl)c2cccnc12)c1ccccc1`?
MLL AF4-AF9 inh: 3; ARNT TACC3 PPI: 52*; ERAP1 HTS inh: 3; S100A4 MyoIIA: -2; AlphaScreen ctr: -36%

How did COc1cc(OC)cc(C(=O)Oc2c(CN3CCOCC3)cc(Cl)c3cccnc23)c1 do in these assays?
MLL AF4-AF9 inh: 8; ARNT TACC3 PPI: 41*; E-selectin induc: 0; Yeast UUG start: -5; ERAP1 HTS inh: 0; S100A4 MyoIIA: -4; AlphaScreen ctr: -38%

Results for COc1cc(C(=S)N2CCOCC2)cc(OC)c1OC(=O)c1ccccc1Cl ?
MLL AF4-AF9 inh: 8; E-selectin induc: 1; Yeast UUG start: -37; ERAP1 HTS inh: 7; S100A4 MyoIIA: -1

Results for CC(C)NC(=O)N1C[C@H]2[C@@H](c3ccccc31)[C@H](CO)N2C(=O)c1ccc(F)cc1 ?
MLL AF4-AF9 inh: 1; ARNT TACC3 PPI: -6; E-selectin induc: 0; Yeast UUG start: 1; ERAP1 HTS inh: 0; S100A4 MyoIIA: 3

How did O=C(C1CCCC1)N1C[C@@H]2[C@H](c3ccccc31)[C@@H](CO)N2C(=O)Cc1ccccn1 do in these assays?
MLL AF4-AF9 inh: -1; ARNT TACC3 PPI: 22; E-selectin induc: 0; Yeast UUG start: -7; ERAP1 HTS inh: 2; S100A4 MyoIIA: 3

What do the screens show for `O=C(NC[C@H]1[C@@H](c2ccccc2)[C@@H](CO)N1Cc1ccccn1)C1CCC1`?
ARNT TACC3 PPI: 56*; E-selectin induc: 0; Yeast UUG start: -37; AlphaScreen ctr: 70µM*

Results for O=C(C1CCCC1)N1C[C@@H]2[C@H](c3ccccc31)[C@H](CO)N2C(=O)Cc1ccccn1 ?
MLL AF4-AF9 inh: -1; ARNT TACC3 PPI: 51*; E-selectin induc: 0; Yeast UUG start: -7; ERAP1 HTS inh: -2; S100A4 MyoIIA: 1; AlphaScreen ctr: -12%[42 µM]

What do the screens show for `O=C(NC[C@@H]1[C@H](c2ccccc2)[C@H](CO)N1Cc1ccccn1)C1CCC1`?
ARNT TACC3 PPI: 60*; E-selectin induc: 0; Yeast UUG start: -35; AlphaScreen ctr: -22%[42 µM]

Results for O=C(NC[C@@H]1[C@H](c2ccccc2)[C@H](CO)N1Cc1ccccn1)C1CCCC1 ?
ARNT TACC3 PPI: 53*; E-selectin induc: 0; Yeast UUG start: -22; AlphaScreen ctr: -25%[42 µM]

Results for CS(=O)(=O)N1[C@H](C#N)[C@H](c2ccccc2-c2ccccc2F)[C@@H]1CO ?
MLL AF4-AF9 inh: -1; E-selectin induc: 0; ERAP1 HTS inh: -4; S100A4 MyoIIA: 5

How did COc1ccc(-c2cnc3c(c2)C(=O)N([C@H](C)CO)C[C@@H](C)[C@@H](CN(C)C(=O)C2CCCCC2)O3)cc1 do in these assays?
MLL AF4-AF9 inh: -5; ARNT TACC3 PPI: -1; E-selectin induc: 1; ERAP1 HTS inh: 4; S100A4 MyoIIA: -1

Results for COc1cc(NC(=O)C(=O)Nc2ccc3nc4n(c(=O)c3c2)CCCCC4)cc(OC)c1OC ?
MLL AF4-AF9 inh: -3; ARNT TACC3 PPI: 50*; E-selectin induc: 0; S100A4 MyoIIA: 0; AlphaScreen ctr: -7%

Results for Cc1ccccc1CNc1nc(-c2ccccn2)nnc1-c1ccccc1 ?
AlphaScreen ctr: 3.1µM*

What do the screens show for `Cc1ccc(CNc2nc(-c3ccccn3)nnc2-c2ccccc2)cc1C`?
AlphaScreen ctr: 2.8µM*

How did c1ccc(-c2nc(NCc3ccco3)c3ccccc3n2)nc1 do in these assays?
Yeast UUG start: 1

How did Cc1cccc(CNc2nc(-c3ccccn3)nnc2-c2ccccc2)c1 do in these assays?
AlphaScreen ctr: 2.1µM*

Results for COc1cccc(-c2ccc3ncnc(NCc4cccc(C)c4)c3c2)c1 ?
MLL AF4-AF9 inh: -2; ARNT TACC3 PPI: -1; E-selectin induc: 0; Yeast UUG start: -5; ERAP1 HTS inh: 0; S100A4 MyoIIA: -3

Results for C=CCNc1nc(-c2ccccn2)nnc1-c1ccccc1 ?
ARNT TACC3 PPI: 104*; Yeast UUG start: -30; AlphaScreen ctr: 1.3µM*

What do the screens show for `COc1ccc(-c2ccc3n(c2=O)C[C@@H]2[C@@H](CO)[C@H](C(=O)N(C)C)[C@H]3N2C(=O)c2cnccn2)cc1`?
E-selectin induc: 0

Results for COCC(=O)N(C)C[C@H]1Oc2cc(-c3ccncc3)ccc2S(=O)(=O)N([C@@H](C)CO)C[C@H]1C ?
MLL AF4-AF9 inh: -3; ARNT TACC3 PPI: -3; E-selectin induc: 0; Yeast UUG start: 0; ERAP1 HTS inh: 0; S100A4 MyoIIA: 11

How did c1ccc(-c2nnc(-c3ccccn3)nc2NCc2cccnc2)cc1 do in these assays?
AlphaScreen ctr: 0.69µM*

Fetched one by one from the list above:
Results for COc1cc(C(=S)N2CCOCC2)cc(OC)c1OC(=O)c1ccccc1Cl ?
MLL AF4-AF9 inh: 8; E-selectin induc: 1; Yeast UUG start: -37; ERAP1 HTS inh: 7; S100A4 MyoIIA: -1

Results for Cc1ccccc1CNc1nc(-c2ccccn2)nnc1-c1ccccc1 ?
AlphaScreen ctr: 3.1µM*

(more compounds)
Results for c1ccc(-c2ccc(CNc3nc(-c4ccccn4)nnc3-c3ccccc3)cc2)cc1 ?
AlphaScreen ctr: 3.4µM*

Results for Oc1ccccc1-c1nc(NCc2cccnc2)c2ccccc2n1 ?
MLL AF4-AF9 inh: 5; ARNT TACC3 PPI: 0; Yeast UUG start: -11; ERAP1 HTS inh: 2; S100A4 MyoIIA: -1

What do the screens show for `Cc1ccc(CNc2nc(-c3ccccn3)nnc2-c2ccccc2)cc1`?
AlphaScreen ctr: 1.5µM*

How did COc1ccc(CNc2nc(-c3ccccn3)nnc2-c2ccccc2)cc1 do in these assays?
AlphaScreen ctr: 1.7µM*

How did CO[C@H]1CN(C)C(=O)c2cc(NC(=O)c3ccno3)ccc2OC[C@@H](C)NC[C@H]1C do in these assays?
MLL AF4-AF9 inh: -5; ARNT TACC3 PPI: 4; E-selectin induc: 1; Yeast UUG start: -3; ERAP1 HTS inh: 11; S100A4 MyoIIA: -35
